The target in the assay is MRCKβ (Homo sapiens (Human), UniProt Q9Y5S2). In words: MRCKβ kinase assay (IMAP fluorescence polarization). Type of assay: biochemical. To be noted: read-out: MRCK-B Average Ki; 1 μM ATP.

Chains of the proteins cited; added tags and fusions are not shown.
UniProt Q9Y5S2, whole entry: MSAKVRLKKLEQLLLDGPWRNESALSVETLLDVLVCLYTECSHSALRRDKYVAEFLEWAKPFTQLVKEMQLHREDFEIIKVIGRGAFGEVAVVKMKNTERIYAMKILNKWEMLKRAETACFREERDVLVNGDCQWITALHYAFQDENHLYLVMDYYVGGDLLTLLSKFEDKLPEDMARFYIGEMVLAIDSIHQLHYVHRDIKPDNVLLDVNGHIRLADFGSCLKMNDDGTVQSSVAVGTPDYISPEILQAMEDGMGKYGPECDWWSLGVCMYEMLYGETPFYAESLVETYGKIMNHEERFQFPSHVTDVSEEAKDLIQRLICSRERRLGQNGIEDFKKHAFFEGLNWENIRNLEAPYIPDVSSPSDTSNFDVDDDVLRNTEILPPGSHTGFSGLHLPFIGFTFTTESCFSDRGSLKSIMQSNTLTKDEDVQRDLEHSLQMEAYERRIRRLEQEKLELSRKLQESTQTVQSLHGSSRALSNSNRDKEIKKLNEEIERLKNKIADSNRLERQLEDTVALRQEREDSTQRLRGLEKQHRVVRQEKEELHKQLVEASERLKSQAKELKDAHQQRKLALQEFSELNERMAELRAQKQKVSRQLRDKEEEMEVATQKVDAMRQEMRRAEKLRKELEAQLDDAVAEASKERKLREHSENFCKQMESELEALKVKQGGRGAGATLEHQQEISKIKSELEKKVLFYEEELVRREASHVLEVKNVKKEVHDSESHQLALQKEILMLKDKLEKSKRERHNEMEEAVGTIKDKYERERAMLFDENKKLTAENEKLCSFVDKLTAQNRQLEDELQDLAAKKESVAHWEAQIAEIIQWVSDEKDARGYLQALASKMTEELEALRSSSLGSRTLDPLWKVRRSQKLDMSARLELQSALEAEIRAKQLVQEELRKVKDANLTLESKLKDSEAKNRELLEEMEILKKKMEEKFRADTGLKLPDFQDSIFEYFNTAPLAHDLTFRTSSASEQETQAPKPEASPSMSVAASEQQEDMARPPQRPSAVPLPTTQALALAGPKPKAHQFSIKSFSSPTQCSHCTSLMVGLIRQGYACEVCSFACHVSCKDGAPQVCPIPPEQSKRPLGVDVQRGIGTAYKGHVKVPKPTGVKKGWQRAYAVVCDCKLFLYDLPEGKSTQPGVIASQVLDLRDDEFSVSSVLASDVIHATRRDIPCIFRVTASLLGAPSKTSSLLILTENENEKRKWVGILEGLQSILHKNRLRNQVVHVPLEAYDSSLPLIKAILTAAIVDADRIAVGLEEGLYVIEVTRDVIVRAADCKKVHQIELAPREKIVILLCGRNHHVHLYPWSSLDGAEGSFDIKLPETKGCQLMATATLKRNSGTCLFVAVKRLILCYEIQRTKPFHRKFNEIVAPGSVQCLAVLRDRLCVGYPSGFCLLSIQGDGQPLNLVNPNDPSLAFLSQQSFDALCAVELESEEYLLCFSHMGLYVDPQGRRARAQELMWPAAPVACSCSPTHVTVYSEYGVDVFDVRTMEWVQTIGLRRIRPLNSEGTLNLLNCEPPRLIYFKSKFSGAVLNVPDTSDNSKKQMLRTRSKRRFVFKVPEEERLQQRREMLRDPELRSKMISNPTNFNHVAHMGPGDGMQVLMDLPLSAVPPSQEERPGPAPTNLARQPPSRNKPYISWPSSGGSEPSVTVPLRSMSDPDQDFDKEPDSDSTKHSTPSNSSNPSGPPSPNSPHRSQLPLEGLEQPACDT

In general, Ki refers to the dissociation constant of the complex between target and ligand, obtained from inhibition or displacement. Take `CNC(=O)C1CCN(c2ccnc3[nH]cc(-c4cncnc4)c23)CC1`: the Ki stood at 0.0209 µM.

The values are drawn from patent publication US11447505B1, “Pyrrolo[2,3-b]pyridine compounds and their use in the treatment of cancer” (priority 2017, dated 2022).
